# Measured values: PubChem BioAssay AID861 (The Scripps Research Institute Molecular Screening Center, 2007)
# Protein sequences, listed by entry. Tags and fused reporters are not part of them.
# UniProt O00206, whole entry: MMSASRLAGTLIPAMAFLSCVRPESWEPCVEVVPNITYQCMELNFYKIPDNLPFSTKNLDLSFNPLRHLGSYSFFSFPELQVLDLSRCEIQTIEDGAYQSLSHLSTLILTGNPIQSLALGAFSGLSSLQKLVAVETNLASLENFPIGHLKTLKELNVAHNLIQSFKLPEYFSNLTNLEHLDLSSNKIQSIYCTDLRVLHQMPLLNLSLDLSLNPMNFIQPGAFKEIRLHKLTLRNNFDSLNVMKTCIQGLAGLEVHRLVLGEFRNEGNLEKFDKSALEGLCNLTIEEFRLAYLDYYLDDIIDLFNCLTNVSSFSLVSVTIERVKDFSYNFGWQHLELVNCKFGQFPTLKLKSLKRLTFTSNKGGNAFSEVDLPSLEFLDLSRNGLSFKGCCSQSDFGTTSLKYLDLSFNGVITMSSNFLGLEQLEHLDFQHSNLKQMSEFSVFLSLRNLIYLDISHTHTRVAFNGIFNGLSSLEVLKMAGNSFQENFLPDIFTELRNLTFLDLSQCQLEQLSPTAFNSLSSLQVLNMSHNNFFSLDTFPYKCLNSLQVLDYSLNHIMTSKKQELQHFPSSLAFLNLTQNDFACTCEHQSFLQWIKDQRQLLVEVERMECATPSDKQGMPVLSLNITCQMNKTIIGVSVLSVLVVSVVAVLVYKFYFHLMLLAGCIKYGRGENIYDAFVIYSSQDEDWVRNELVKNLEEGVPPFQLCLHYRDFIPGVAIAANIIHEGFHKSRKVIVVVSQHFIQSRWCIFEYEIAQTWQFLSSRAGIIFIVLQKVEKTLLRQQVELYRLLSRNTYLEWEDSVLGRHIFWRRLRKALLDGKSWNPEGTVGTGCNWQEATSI
# This is a selection; strong and weak results do not stand in their true shares. The source made the active and inactive calls. No stated cut-off is given here; in the data, active means inhibition above about 25%; inactive means the rest.
# Molecular target: Toll-like receptor 4 (Homo sapiens) + Myeloid differentiation primary response protein MyD88 (Homo sapiens) (UniProt O00206+Q99836)
# Test: inhibitors of TLR4-MyD88 association in cells, primary screen, cell-based, HeLa CL3-4, BLA complementation, FRET ratio (AID 861);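 further: 0% = vehicle and 100% = reference inhibitor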
# Conditions: HeLa CL3-4 TLR4/MyD88 BLA complementation, at 8.4 µM, active compounds read high
row,Structure (SMILES),inhibition
1,CC1=NCCc2c1[nH]c1ccccc21.O=[N+]([O-])c1cc([N+](=O)[O-])c(O)c([N+](=O)[O-])c1,inactive: 7.78%
2,CCOC(=O)c1ccc(NP(C)(=O)Oc2cc(C)cc(C)c2)cc1 (centres undefined),inactive: 9.24%
3,Cc1cc(C)cc(OP(C)(=O)Nc2ccc(C)cc2C)c1 (centres undefined),inactive: 10.7%
4,Cc1ccc(C)c(NP(C)(=O)Oc2ccccc2)c1 (centres undefined),inactive: -7.31%
5,Cc1cc(C)cc(OP(C)(=O)Nc2ccccn2)c1 (centres undefined),inactive: 3.5%
6,CP(=O)(Nc1cccc(Br)c1)Oc1ccccc1 (centres undefined),inactive: 8.03%
7,O=[N+]([O-])c1cc([N+](=O)[O-])c(-n2nnc3ccccc32)c([N+](=O)[O-])c1,inactive: 8.96%
8,Cc1nc2ccc3ccccc3c2s1.O=[N+]([O-])c1cc([N+](=O)[O-])c(O)c([N+](=O)[O-])c1,inactive: -1.18%
9,CCCOc1ccc(NP(C)(=O)Oc2ccc(Cl)cc2)cc1 (centres undefined),inactive: -3.27%
10,CP(=O)(Nc1ccc(SC(F)(F)F)cc1)Oc1ccccc1 (centres undefined),inactive: -5.57%
11,CN1CCCCC1COC(=O)C1(O)c2ccccc2CCc2ccccc21 (centres undefined),inactive: -14.7%
12,COc1ccccc1OP(C)(=O)Nc1c(C)cccc1C (centres undefined),inactive: 7.26%
13,CP(=O)(Nc1ccccc1Br)Oc1ccccc1 (centres undefined),inactive: -6.41%
14,COc1ccccc1OP(C)(=O)Nc1ccccc1 (centres undefined),inactive: -1.76%
15,CP(=S)(Nn1cnnc1)Oc1ccccc1 (centres undefined),inactive: -14.3%
16,CP(=O)(NC(=O)Nc1ccccc1)Oc1ccccc1 (centres undefined),inactive: -4.57%
17,Cc1cc(C)cc(OP(C)(=O)Nc2ccc(SC(F)(F)F)cc2)c1 (centres undefined),inactive: -11.7%
18,Cc1cccc(C)c1OP(C)(=O)Nc1ccc(SC(F)(F)F)cc1 (centres undefined),inactive: -10.8%
19,CP(=O)(Oc1ccccc1)OC(c1ccccc1)C(F)(F)F (centres undefined),inactive: 5.18%
20,CP(=O)(Nc1ccccn1)Oc1ccc(Cl)cc1 (centres undefined),inactive: -13.1%
21,CCOC(=O)c1ccc(NP(C)(=O)Oc2ccc(OC)cc2)cc1 (centres undefined),inactive: 9.86%
22,CCOP(C)(=S)SCC(=O)NC(C)C(=O)O (centres undefined),inactive: -5.4%
23,CCN(CC)CCCOC(=O)C(O)(c1ccccc1)c1ccccc1,inactive: 10.1%

row,Structure (SMILES),inhibition
1,O=[N+]([O-])c1ccc2c(c1)C=Nc1ccccc1O2,inactive: -3.69%
2,CC(C)(C)c1ccc(OP(C)(=O)Nc2ccc(SC(F)(F)F)cc2)cc1 (centres undefined),inactive: -7.31%
3,Cc1cccc(C)c1OP(C)(N)=O (centres undefined),inactive: 7.26%
4,Cc1cc(C)cc(OP(C)(N)=O)c1 (centres undefined),inactive: -2.89%
5,COc1ccccc1OP(C)(=O)Nc1cc(Cl)ccc1C (centres undefined),inactive: -15.5%
6,COc1ccc(OP(C)(=O)Nc2cccc(F)c2)cc1 (centres undefined),inactive: 10.7%
7,COc1ccccc1OP(C)(=O)Nc1ccc(C)cc1 (centres undefined),inactive: -6.03%
8,Cc1ccc(NP(C)(=O)Oc2ccccc2)c(C)c1 (centres undefined),inactive: -14.5%
9,CCOC(=O)c1ccc(NP(C)(=O)Oc2ccccc2)cc1 (centres undefined),inactive: -12%
10,COc1ccccc1OP(C)(=O)Nc1ccc(C)c(C)c1 (centres undefined),inactive: 6.12%
11,COc1ccc(OP(C)(=O)Nc2ccccc2Br)cc1 (centres undefined),inactive: -3.94%
12,Cc1cc(C)cc(OP(C)(=O)Nc2cccc(C(F)(F)F)c2)c1 (centres undefined),inactive: -5.35%
13,CP(=O)(Nc1ccc(Cl)cc1Cl)Oc1ccccc1 (centres undefined),inactive: 1.89%
14,CP(=O)(OCCOc1ccccc1)OCCOc1ccccc1,inactive: -3.78%
15,Cc1nc2ccc3ccccc3c2o1.O=[N+]([O-])c1cc([N+](=O)[O-])c(O)c([N+](=O)[O-])c1,inactive: -3.75%
16,COc1ccc(OP(C)(=O)Nc2ccccn2)cc1 (centres undefined),inactive: 1.3%
17,CN(C)CCOC(=O)C(O)(c1ccccc1)C1CCCC1 (centres undefined),inactive: -1.99%
18,CP(=O)(Nc1ccccn1)Oc1ccccc1 (centres undefined),inactive: 5.45%
19,COc1ccccc1OP(C)(=O)Nc1ccc(C)cc1C (centres undefined),inactive: 0.68%
20,Cc1c(NP(C)(=O)Oc2ccc(C(C)C)cc2)c(=O)n(-c2ccccc2)n1C (centres undefined),inactive: 11.8%
21,O=[N+]([O-])c1cc([N+](=O)[O-])c(Nc2ccccn2)c([N+](=O)[O-])c1,inactive: 7.55%
22,COc1ccccc1OP(C)(=O)Nc1c(C)n(C)n(-c2ccccc2)c1=O (centres undefined),inactive: -5.95%
23,CP(=O)(Oc1ccccc1)N1CCOC1=O (centres undefined),inactive: 3.22%

row,Structure (SMILES),inhibition
1,CCc1ccc(OP(C)(=O)Nc2cccnc2)cc1 (centres undefined),inactive: 1.29%
2,CCN(CC)CC(O)COC(=O)C(O)(c1ccccc1)C1CCCCC1 (centres undefined),inactive: 9.36%
3,COc1ccc(OP(C)(=O)Nc2ccc(Br)cc2)cc1 (centres undefined),inactive: -1.28%
4,CN(C)C(=O)c1c([N+](=O)[O-])cc([N+](=O)[O-])cc1[N+](=O)[O-],inactive: 3.86%
5,COc1ccccc1OP(C)(=O)Nc1ccccc1Br (centres undefined),inactive: -1.73%
6,CC(C)(C)c1ccc(OP(C)(=O)O)cc1,inactive: 5.81%
7,CP(=O)(Nc1ccc(Cl)cc1)Oc1ccc(F)cc1 (centres undefined),inactive: -3.11%
8,CCOC(=O)c1ccc(NP(C)(=O)Oc2ccc(Cl)cc2)cc1 (centres undefined),inactive: 4.96%
9,CP(=O)(OC12CC3CC(CC(C3)C1)C2)OC12CC3CC(CC(C3)C1)C2,inactive: 4.15%
10,CN(C)CCOC(=O)C(O)(c1ccccc1)C1CCCCC1 (centres undefined),inactive: 15.9%
11,COc1ccc(NP(C)(=O)Oc2ccccc2OC)cc1 (centres undefined),inactive: -10.7%
12,COc1ccc(OP(C)(=O)Nc2cccc(Br)c2)cc1 (centres undefined),inactive: 6.69%
13,O=[N+]([O-])c1cc([N+](=O)[O-])c(NCC2CCS(=O)(=O)C2)c([N+](=O)[O-])c1 (centres undefined),inactive: 0.87%
14,CCOP(C)(=S)SCC(=O)NC(C)(CC)C(=O)O (centres undefined),inactive: -10.6%
15,Cc1ccccc1NP(C)(=O)Nc1ccccc1C,inactive: -6.84%
16,CP(=O)(Nc1ccc2c(c1)OCCO2)Oc1ccccc1 (centres undefined),inactive: 8.03%
17,CP(=O)(Nc1ccccc1F)Oc1ccccc1 (centres undefined),inactive: 3.51%
18,CC(C)c1ccc(OP(C)(=O)Nc2ccc(SC(F)(F)F)cc2)cc1 (centres undefined),inactive: 5.88%
19,O=C(OCCN1CCN(CCOCc2ccccc2)CC1)C(O)(c1ccccc1)c1ccccc1,inactive: 3.38%
20,CCOC(=O)c1ccc(NP(C)(=O)Oc2ccc(F)cc2)cc1 (centres undefined),inactive: -8.9%
21,COc1ccc(OP(C)(=O)Nc2ccc(SC(F)(F)F)cc2)cc1 (centres undefined),inactive: -7.48%
22,CP(=O)(Nc1ccccc1)Oc1ccc(F)cc1 (centres undefined),inactive: 0.66%
23,CCN(CC)CCCOC(=O)C(O)(c1ccccc1)C1CCCCC1 (centres undefined),inactive: -9.83%
